Test system: HGT-1 cells
Test: Cell viability (MTT)
Settings: casein 10 µM, hydrolysates 10 µM, peptides 250 µM, probenecid 1 mM in KRHB or transfection reagents, 30 min or 72 h, relative to KRHB control = 100%

`CCCN(CCC)S(=O)(=O)c1ccc(C(=O)O)cc1` [probenecid] was tested, and the “cell viability compared to control” value was no less than 97.5%.
